Experimental data: PMC8301260 (Medicinal chemistry research : an international journal for …, 2016)

tested on: primary human PBM, human CEM, and Vero cells

SMILES | toxicity in all the cell systems tested (in words)
Cc1ccc(NC(C#N)c2ccc(OCc3ccc(Cl)cc3Cl)cc2)cc1 (stereo not drawn) [Compound 2h, 2-[4-(2,4-Dichlorobenzyloxy)phenyl]-2-(4-toluidino)acetonitrile] | highly toxic
Cc1cc(C)cc(NC(C(N)=O)c2c(Cl)cccc2Cl)c1 (stereo not drawn) [Compound 4, 2-(2,6-Dichlorophenyl)-2-(3,5-dimethylanilino)acetamide] | highly toxic
NCC1(c2ccccc2)CCCN1C(=O)c1ccc(Br)cc1 (stereo not drawn) [Compound 10] | no toxicity
